# Test results taken from publication PMC4973850, “Molecular structure‐function relationship of dietary polyphenols for inhibiting VEGF‐induced VEGFR‐2 activity” (Molecular Nutrition & Food Research, 2015).
# Amino acid sequences for entries named in this document (tags omitted). Residues count along the entry.
# UniProt P15692, 1-191 isoform P15692-4: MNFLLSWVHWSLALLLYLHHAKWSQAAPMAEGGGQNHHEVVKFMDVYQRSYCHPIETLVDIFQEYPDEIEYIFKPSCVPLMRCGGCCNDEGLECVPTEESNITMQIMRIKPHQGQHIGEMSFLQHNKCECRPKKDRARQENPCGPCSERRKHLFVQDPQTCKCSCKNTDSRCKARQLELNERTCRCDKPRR
# Target: T1, VEGF (human recombinant VEGFA165); VEGF‐induced VEGFR‐2 activation in HUVECs (Homo sapiens, UniProt P15692)
# T1 construct: purchased R&D Systems, Abingdon, UK
# Experiment: Inhibition of VEGF‐induced VEGFR‐2 phosphorylation in HUVECs after pre‐incubating VEGF with polyphenol (Phospho‐VEGFR‐2 Tyr1175 ELISA);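 further: sandwich ELISA of VEGFR-2 phosphorylated at Tyr1175 in lysates of confluent HUVECs, with VEGF alone and DMSO vehicle (≤0.1%) as control incubations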
# Type: cell-based
# Details: VEGF 25 ng/mL pre‐incubated 5 min with polyphenol, then HUVECs 5 min; phospho‐VEGFR‐2 ELISA; 95% confidence intervals in parentheses
substance,measurement,value
catechin gallate [CG],IC50 (μM),0.094 (0.074–0.097) μM
